{"source": "ChEMBL document CHEMBL2429811", "about": "“Novel selective and potent inhibitors of malaria parasite dihydroorotate dehydrogenase: discovery and optimization of dihydrothiophenone derivatives” (J Med Chem, 2013)", "target": "T1, Dihydroorotate dehydrogenase (Plasmodium falciparum, UniProt Q54A96)", "T1 sequence (Q54A96 whole entry)": "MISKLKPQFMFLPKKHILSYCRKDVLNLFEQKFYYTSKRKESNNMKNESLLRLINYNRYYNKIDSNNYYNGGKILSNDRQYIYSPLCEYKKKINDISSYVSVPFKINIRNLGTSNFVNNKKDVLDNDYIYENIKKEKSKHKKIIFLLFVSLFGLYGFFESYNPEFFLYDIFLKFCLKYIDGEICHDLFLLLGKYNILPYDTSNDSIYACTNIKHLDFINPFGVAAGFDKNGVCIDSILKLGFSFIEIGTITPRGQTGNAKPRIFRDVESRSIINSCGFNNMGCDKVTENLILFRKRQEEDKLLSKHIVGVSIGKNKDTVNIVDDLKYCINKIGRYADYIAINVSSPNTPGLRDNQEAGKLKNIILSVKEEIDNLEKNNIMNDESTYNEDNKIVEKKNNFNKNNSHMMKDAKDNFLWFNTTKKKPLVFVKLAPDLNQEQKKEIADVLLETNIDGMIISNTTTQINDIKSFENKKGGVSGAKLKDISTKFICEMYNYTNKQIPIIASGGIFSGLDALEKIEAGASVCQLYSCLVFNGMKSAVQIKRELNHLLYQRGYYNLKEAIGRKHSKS", "test": "Inhibition of Plasmodium falciparum DHODH (Phe158 to Ser569) expressed in Escherichia coli BL21 using dihydroorotate as substrate measured every 30 secs for 6 mins by DCIP dye-based assay", "data": [{"smiles": "Cc1cc(Nc2ccc3ccccc3c2)n2ncnc2n1", "values": [{"measurement": "IC50", "result": 31, "unit": "nM"}]}]}
